Values of other authors as cited in US6087346A, “Sigma receptor ligands and the use thereof” (Cambridge Neuroscience, Inc., priority 1996, dated 2000).

Sequences of proteins named here, by UniProt entry; tags and fusion partners are left off.
UniProt Q60492, whole entry: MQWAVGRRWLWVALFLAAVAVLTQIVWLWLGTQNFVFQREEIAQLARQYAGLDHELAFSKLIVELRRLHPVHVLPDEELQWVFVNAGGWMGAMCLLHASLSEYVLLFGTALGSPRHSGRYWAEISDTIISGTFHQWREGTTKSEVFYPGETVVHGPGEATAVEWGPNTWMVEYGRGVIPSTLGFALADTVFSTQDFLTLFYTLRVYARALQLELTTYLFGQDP

Target: sigma-1 site (Cavia porcellus, UniProt Q60492)
Conditions: Hellewell and Bowen (1990); cited from earlier work

SMILES: C=CCN1CCC2(C)c3cc(O)ccc3CC1C2C (stereo not shown) [NANM, N-allyl normetazocine]
- affinity for the sigma-1 site compared to the sigma-2 site: nearly two orders of magnitude higher affinity for the sigma-1 site compared to the sigma-2 site
